Assay results: ChEMBL document CHEMBL2413008, “Carbonic anhydrase inhibitors: Synthesis and inhibition of the cytosolic mammalian carbonic anhydrase isoforms I, II and VII with benzene sulfonamides incorporating 4,5,6,7-tetrachlorophthalimide moiety” (Bioorg Med Chem, 2013)

The chains behind the UniProt entries cited, without tags or fusion partners. Where a name states a change or a piece, a line headed by the entry shows the natural chain unless it says otherwise.
UniProt P00915: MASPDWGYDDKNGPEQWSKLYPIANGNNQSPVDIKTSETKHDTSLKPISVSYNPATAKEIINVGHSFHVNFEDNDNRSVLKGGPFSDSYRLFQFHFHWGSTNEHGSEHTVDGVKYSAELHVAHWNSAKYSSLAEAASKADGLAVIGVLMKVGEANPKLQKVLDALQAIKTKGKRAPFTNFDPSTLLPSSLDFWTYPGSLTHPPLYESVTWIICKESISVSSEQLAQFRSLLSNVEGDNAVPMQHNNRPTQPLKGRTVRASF

Biological target: Carbonic anhydrase 1 (Homo sapiens, UniProt P00915)

NS(=O)(=O)c1ccc(N2C(=O)c3c(Cl)c(Cl)c(Cl)c(Cl)c3C2=O)c(Cl)c1
Ki: 0.15 µM
